Results reported in patent US4680304A, “Feed compositions containing 2-(α-pyridyl)-Δ^2 -heterocyclic compounds” (SmithKline Beckman Corporation, priority 1985, dated 1987).

Test system: fermentation in the digestive tract (swine ileal/cecal inoculum)
Assay: In vitro swine procedure (fistula test; incubation of filtered ileal/cecal inoculum)
Parameters: species or system swine (Yorkshire barrow)
Settings: 5 hours at 37°

| Molecule | GLU (glucose) (1.67 ppm) | GLU (glucose) (16.67 ppm) | LAC (L-lactic acid) (entry (a), 166.7 ppm) | LAC (L-lactic acid) (1.67 ppm) | LYS (lysine) (1.67 ppm) | LAC (L-lactic acid) (16.67 ppm) | LYS (lysine) (166.67 ppm) | VFA (total of volatile fatty acids) (166.67 ppm) |
| --- | --- | --- | --- | --- | --- | --- | --- | --- |
| CC1(O)CC(C(N)=O)N=C1c1ncccc1O (stereo not drawn) [3,4-dihydro-4-hydroxy-5-(3-hydroxy-2-pyridinyl)-4-methyl-2H-pyrrole-2-carboxamide] | 97 % of control values | 100 % of control values | 162 % of control values |  |  |  |  |  |
| COC(=O)C1(C)NN=C(c2ccccn2)N1 (stereo not drawn) [Methyl 5-methyl-3-(2'-pyridyl)-4,5-dihydro-1H-triazole-5-carboxylate] | 112 % of control values | 102 % of control values |  | 105 % of control values | 47 % of control values | 102 % of control values | 81 % of control values | 95 % of control values |
| Virginiamycin [reference compound] |  |  |  | 39 % of control values |  | 21 % of control values |  |  |
